Measurements reported in PubChem BioAssay AID2130 (The Scripps Research Institute Molecular Screening Center, 2009).
Only a part is listed here, and it is no random draw. Activity calls are given as the source filed them.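 Rule for the calls: active = inhibition above the campaign mean of all compounds plus 3 SD (cut at about 26% in these data); inactive = the rest.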

Chains of the proteins cited; added tags and fusions are not shown. Lines headed by an entry give the natural chain unless they say otherwise; changes in a name come on top.
UniProt Q9Y570: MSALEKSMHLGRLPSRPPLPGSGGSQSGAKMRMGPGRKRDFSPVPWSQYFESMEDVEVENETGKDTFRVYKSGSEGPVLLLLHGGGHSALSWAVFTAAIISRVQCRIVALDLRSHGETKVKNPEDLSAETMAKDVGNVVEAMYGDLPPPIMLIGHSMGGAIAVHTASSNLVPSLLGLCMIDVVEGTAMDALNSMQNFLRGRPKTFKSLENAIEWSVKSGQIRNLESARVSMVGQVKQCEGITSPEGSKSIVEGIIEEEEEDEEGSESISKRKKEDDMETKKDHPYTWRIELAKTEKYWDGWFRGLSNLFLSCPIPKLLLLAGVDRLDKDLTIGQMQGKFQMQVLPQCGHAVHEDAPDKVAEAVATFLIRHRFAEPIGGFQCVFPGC

Each molecule was assayed against Protein phosphatase methylesterase 1 (Homo sapiens) (UniProt Q9Y570) (assay: PME-1 inhibitors via competitive probe labeling, primary screen, biochemical, fluorescence polarization, FP-Rh probe, HTS (AID 2130;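 note: competitive labeling of PME-1 active site by serine hydrolase directed probe; 0% = PME-1 with DMSO and 100% = wells lacking PME-1 enzyme; inhibitors block probe labeling so polarization falls and inhibition rises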)). Conditions: recombinant PME-1, FP-Rh probe fluorescence polarization; at 5.9 µM; active compounds read high.

| SMILES | inhibition |
| --- | --- |
| Clc1ccc(Cl)c(NC2=NCC(CBr)S2)c1 (stereo not drawn) | inactive: -7.15% |
| CN1CCCC(OC(=O)C(c2ccccc2)c2ccccc2)C1 (stereo not drawn) | inactive: 1.89% |
| Cc1ccc(OP(=O)(Nc2nccs2)Oc2ccc(C)cc2)cc1 | inactive: 2.47% |
| COc1ccccc1OP(=O)(Nc1ccc(C)cn1)Oc1ccccc1OC | inactive: -0.19% |
| Cc1ccc(N/C(=N/P(=O)(N2CCOCC2)N2CCOCC2)N2CCOCC2)cc1 | inactive: -0.24% |
| CN(C(=O)Cc1ccc(Cl)c(Cl)c1)[C@H]1CCCC[C@H]1N1CCCC1 | inactive: -0.19% |
| NC(=O)c1cc([N+](=O)[O-])cc([N+](=O)[O-])c1N | inactive: 2.93% |
| COc1ccc(N/C(=N/P(=O)(N2CCOCC2)N2CCOCC2)N2CCOCC2)cc1 | inactive: 1.42% |
| COc1cc(I)ccc1[As](=O)(O)O | inactive: -1.48% |
| COc1ccc2nc(NP(=O)(c3ccccc3)c3ccccc3)sc2c1 | inactive: -1.76% |
| Cc1c2c(nc3ccccc13)SC(C(Cl)Cl)C2 (stereo not drawn) | inactive: -2.59% |
| Cc1cc(=O)[nH]c(N[N+](=O)[O-])n1 | inactive: 3.16% |
| O=C(OC1CN2CCC1CC2)C12CC3CC(CC(C3)C1)C2 (stereo not drawn) | inactive: 1.6% |
| O=[N+]([O-])c1cc([N+](=O)[O-])c(-c2ccn[nH]2)s1 | inactive: -5.63% |
| CCN(CC)C(=S)SC(NC=O)C(Cl)(Cl)Cl (stereo not drawn) | inactive: 0.92% |
| CC(C)NC(=O)NP(=O)(Oc1ccccc1)Oc1ccccc1 | inactive: 7.61% |
| ClCCSc1nnc(-c2cccnc2)o1 | inactive: -4.25% |
| CC(C)c1ccc(OP(=O)(Nc2ccccn2)Oc2ccccc2F)cc1 (stereo not drawn) | inactive: 1.88% |
| Cc1ccc(OP(=O)(Nc2ccc([N+](=O)[O-])cn2)Oc2ccc(C)cc2)cc1 | inactive: 4.28% |
| Cc1ccc2nc3c(c(C)c2c1)CC(C(Cl)Cl)S3 (stereo not drawn) | inactive: 6.9% |
| COc1cc(C(=O)NCC2(N3CCOCC3)CCCCC2)ccc1OCC(C)C | inactive: 0.14% |
| C[As](=O)(O)c1cccc(C(=O)O)c1 | inactive: -1.6% |
| O=[As](O)(c1ccc(O)cc1)c1ccccc1O | inactive: -2.98% |
| O=P(Nc1ccccn1)(c1cccc2ccccc12)c1cccc2ccccc12 | inactive: 2.21% |
| Cc1cc(SC(NC=O)C(Cl)(Cl)Cl)ncn1 (stereo not drawn) | inactive: 0.42% |
| CCOC(=O)Nc1cccc([As](=O)(O)O)c1 | inactive: -3.62% |
| Cc1cc(SC(NC(=O)c2ccccc2)C(Cl)(Cl)Cl)nc(C(C)C)n1 (stereo not drawn) | inactive: -1.45% |
| CCOC(=O)Nc1ccc([As](=O)(O)O)c(O)c1 | inactive: 5.21% |
